## AlphaSeq binding of Ab-14 light chain variants to a spike HR2 peptide

The target is the same throughout: PDVDLGDISGINAS, from the HR2 region of SARS-CoV-2 spike.

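These sequences belong to a second round, designed from the earlier measurements on random variants of the parent. Several design methods are mixed in this list. Affinity was read by AlphaSeq, a pooled yeast mating assay with surface-displayed partners. After mating in shaken culture at 30 °C for 16 h, diploids were selected and their barcode pairs sequenced. Scores were corrected for input abundance and mapped to Kd with protein pairs of known affinity run in the same pool. Mating was done six times.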

Each scFv is VH, a (GGGGS)3 linker, VL, as in the parent Ab-14, and differs from it in the CDRs of the light chain only.
VH: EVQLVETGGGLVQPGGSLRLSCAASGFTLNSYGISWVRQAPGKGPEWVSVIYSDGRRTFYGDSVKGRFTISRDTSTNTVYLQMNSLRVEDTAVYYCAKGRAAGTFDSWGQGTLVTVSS
VL: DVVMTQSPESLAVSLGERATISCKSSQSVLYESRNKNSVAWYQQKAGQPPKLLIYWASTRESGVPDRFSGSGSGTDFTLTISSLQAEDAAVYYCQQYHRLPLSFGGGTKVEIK

Variants are written as CDR1, CDR2 and CDR3 of the light chain (limits as in the source). Parent: KSSQSVLYESRNKNSVA, WASTRES, QQYHRLPLS.
Affinities are written as log10 Kd with Kd in nM; a lower number is a better binder.
Replicates are averaged; those with no signal do not enter the mean.
A pair that was not seen in any replicate is written "not detected"; this usually means weak binding, but a binder can also be missed.
The range of this assay differs from that of the first round, and the authors advise against merging the two.

CDR-L1	CDR-L2	CDR-L3	log10 Kd (nM), mean	replicates with signal
KVSQSVLTESQNKNSVA	GASHRES	QWYHRLPNS	2.61	4 of 6
KVSQGGLYEQRQKNSVA	NASQRES	QQYHRLPLS	0.69	6 of 6
KSSQSVLDESSNKNSVA	WASTRES	QQYHRLPLS	0.48	6 of 6
HLSINLPGQWYMGDSVA	HSERRAE	QQYARLPLG	1.47	6 of 6
KLHQSVLYESRHKNSVA	NASQRES	QQYHRLPLS	0.11	6 of 6
HLGLATMLEAQVRNSVA	NNSTRED	QQYDRLPLS	2.70	6 of 6
KSVQSELYESRNKNSVA	HASTAES	QQYHRLPLS	0.75	6 of 6
TISTSALYESINKNSVA	ELSTRGQ	QQYERLPLS	0.68	6 of 6
MISQLMNMGTFAINSVA	QASIRNQ	QQYDRLPLT	1.50	4 of 6
HSSQSVLMESRNKNSVA	DASTRES	QQYHRLPLS	0.43	6 of 6
KSAQSVLYESRNKNSVA	WASHRES	QVYHRLPLS	not detected	0 of 6
FIMHFGEEANLNSKNIA	AKNTRVD	QQYNRLPLS	0.83	6 of 6
KLSQSVLYESRNKNSVA	DASLRES	QQYHRLPLS	-0.95	6 of 6
TIAQSVNMTGLNRNSVA	QAEERIE	QQYHRLPLS	1.66	6 of 6
MISDLTMYGSRNKNSVA	DLSTRGS	QDYHRLPLS	-0.19	6 of 6
KLSPSVLYESQEKNSVA	DASTREK	QQYHRLPLS	-0.13	6 of 6
KYSQSVLYMSRNKNSVA	WASMRES	QQYHRLPLS	1.26	6 of 6
TIGGTLMVGMRNRSNVA	EVSERLN	QQYDRLPLI	2.11	6 of 6
TISQSAHMESHNRNNVA	DLNLRGS	QQYDRLPLS	0.52	6 of 6
AFTESIFYGQRDSNAIA	HADVVEK	QQYFRFPLA	1.67	6 of 6
KIPQGVPYESRNKNSVA	GASVRES	QQYHRLPLS	0.01	6 of 6
KSVQSVLYPSLDKNSVA	NASTRES	QQYHRLPLS	0.89	6 of 6
KLSMKTYGPTEIKSNVA	NDEMRWQ	QQYDKLPLI	1.79	5 of 6

Second part, the sequence after the result:

log10 Kd (nM), mean	replicates with signal	CDR-L1	CDR-L2	CDR-L3
0.15	6 of 6	KSSISYLYESRNENSVA	NASTREQ	QQYHRLPLS
1.69	5 of 6	FMRMECYGYQNYGNSIA	HGNIRHN	QQYSRLPFS
0.70	6 of 6	KLSMTHEMEHVNRNSVA	ELVTRIS	QQYNRLPLS
1.95	6 of 6	KSQISPGYEQRNKNSVA	EASTRCD	QQYHRLPLS
0.52	6 of 6	KSSQSVLYESMNKNSVA	EASTRMS	QQYHRLPLS
-0.44	6 of 6	KWQQSVDYESRNKNSVA	NGQTREA	QQYHRLPLS
0.46	6 of 6	KQDQSCPGEQRNKNSVA	SASTRCS	QQYHRLPLS
not detected	0 of 6	RSSPSVLYESRNHNSVA	SASTCEF	QQYHRLPLS
1.68	6 of 6	KLGSSTRFESSNKASIA	DNSTREQ	QQYHRLPLS
0.17	6 of 6	KLDSAEQHGTAQNSAMA	SASVSTQ	QQYSRLPLS
0.47	6 of 6	MVTQMAMTGMTNKRSVA	NAETREA	QQYHRLPLI
1.02	6 of 6	KISQMVRVGSTHSNSIA	EEATRAK	QQYHRLPLQ
2.68	1 of 6	KLSMFYRVETRNKNSVA	DNSTRES	QDYDRLPLS
1.78	6 of 6	QLDHQLQYDDANKKAVA	EMTEVTT	QQYHRLPLV
1.45	2 of 6	YLDSGDVDGQKSKESIA	DADHSGA	QQYARLPLG
0.46	6 of 6	HLQDWGIYGMENMDSIA	EREKLEM	QQYFRLPLS
not detected	0 of 6	HSSQSVLYDSRNENSVA	WASTRES	QQYPRLPLS
0.80	6 of 6	NMRGVEGEIAQHGNSVA	GVDLREA	QQYARLPLH
-1.52	6 of 6	QISGIQGHMSTIKNNVA	EMVTRAN	QQYERLPLS
1.21	6 of 6	KWMQSVDQESRNKNSVA	HASTRMQ	QQYHRLPLS
1.15	6 of 6	KLTTQVGHQMDHKNSIA	EVDMVAC	QQYMRLPLI
not detected	0 of 6	KSMQSVLYGSRNKNSVA	YASTRES	QQYHRLPLS
-0.04	6 of 6	KQSDSVLQESRNKNSVA	DASTRES	QQYHRLPLS

The first 5 entries again:

CDR-L1	CDR-L2	CDR-L3	log10 Kd (nM), mean	replicates with signal
KVSQSVLTESQNKNSVA	GASHRES	QWYHRLPNS	2.61	4 of 6
KVSQGGLYEQRQKNSVA	NASQRES	QQYHRLPLS	0.69	6 of 6
KSSQSVLDESSNKNSVA	WASTRES	QQYHRLPLS	0.48	6 of 6
HLSINLPGQWYMGDSVA	HSERRAE	QQYARLPLG	1.47	6 of 6
KLHQSVLYESRHKNSVA	NASQRES	QQYHRLPLS	0.11	6 of 6

As a blank, each scFv also met three strains without target: over all light chain designs, 4% of these pairings were detected, typically at 2.64 and seldom below 1.59.
The authors' rule: three or more of the six replicates give a measured affinity, fewer mean a poor binder.
The parent sequence was in this pool as ten entries: three were never detected, three once, and four in most replicates, with averages from 0.34 to 2.37.

The measurements come from Li et al. 2023 (doi:10.1038/s41467-023-39022-2) through the FLAb antibody collection.